Laboratory results taken from patent EP0367895A1, “Pyrimidinyl-substituted hydroxyacids, lactones and esters and pharmaceutical compositions containing them” (SANDOZ AG, priority 1988, dated 1990).

Molecular target: T1, 3-hydroxy-3-methylglutaryl coenzyme A (HMG-CoA) reductase (Rattus norvegicus, UniProt P51639)
T1 construct: In vitro microsomal assay of; from tissue; host or cells: Microsomes; it is liver according to own knowledge of EP 114 027
T1 sequence (P51639 1-887): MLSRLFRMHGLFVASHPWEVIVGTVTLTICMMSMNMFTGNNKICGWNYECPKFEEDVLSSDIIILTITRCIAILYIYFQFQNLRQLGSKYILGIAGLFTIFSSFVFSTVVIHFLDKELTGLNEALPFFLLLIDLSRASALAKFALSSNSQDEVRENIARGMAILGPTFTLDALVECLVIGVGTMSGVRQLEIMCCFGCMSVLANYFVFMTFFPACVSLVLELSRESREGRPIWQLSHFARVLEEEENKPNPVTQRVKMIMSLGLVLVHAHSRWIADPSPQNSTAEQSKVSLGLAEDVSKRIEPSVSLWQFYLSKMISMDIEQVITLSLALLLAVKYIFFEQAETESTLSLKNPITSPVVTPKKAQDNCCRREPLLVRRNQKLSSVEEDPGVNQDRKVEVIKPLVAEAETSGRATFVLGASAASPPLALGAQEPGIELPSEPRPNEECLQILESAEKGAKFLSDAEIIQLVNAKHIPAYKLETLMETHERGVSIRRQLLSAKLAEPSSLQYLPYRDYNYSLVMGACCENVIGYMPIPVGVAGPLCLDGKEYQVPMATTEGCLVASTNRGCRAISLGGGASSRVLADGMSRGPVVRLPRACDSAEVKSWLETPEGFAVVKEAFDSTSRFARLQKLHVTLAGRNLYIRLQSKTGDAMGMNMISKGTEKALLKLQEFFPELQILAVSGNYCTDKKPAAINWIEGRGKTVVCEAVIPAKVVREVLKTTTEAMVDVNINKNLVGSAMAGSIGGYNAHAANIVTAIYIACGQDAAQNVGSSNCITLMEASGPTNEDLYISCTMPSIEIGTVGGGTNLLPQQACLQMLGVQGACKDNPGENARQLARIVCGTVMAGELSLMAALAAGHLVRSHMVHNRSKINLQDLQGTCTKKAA
Experiment: Test A: in vitro microsomal assay of HMG-CoA reductase inhibition (as described in EP 114 027)
Type: biochemical
Settings: concentration calculated to produce a 50% inhibition of HMG-CoA reductase activity; tests run between 0.05 µM and 1000 µM; read-out: IC₅₀
Procedure: Test A. In vitro microsomal assay of 3-hydroxy-3-methylglutaryl coenzyme A (HMG-CoA) reductase inhibition: as described in EP 114 027:
IC₅₀ is the concentration of the test substance in the assay system calculated to produce a 50% inhibition of HMG-CoA reductase activity. The tests are run at concentrations of test substance between 0.05 µM and 1000 µM.

Mevinolin [reference compound] showed an IC50 of 0.352 µM.
